Molecular target: PRMT1 (Rattus norvegicus, UniProt Q63009)
Test: Radioactive methyltransferase assay, PRMT1
Format: biochemical
Conditions: IC50, His6x-PRMT1 0.05 μM, 2 μM H4(1-20), 5 μM [14C]-SAM, 30°C

Sequences of proteins named here, by UniProt entry; tags and fusion partners are left off.
UniProt Q63009, whole entry: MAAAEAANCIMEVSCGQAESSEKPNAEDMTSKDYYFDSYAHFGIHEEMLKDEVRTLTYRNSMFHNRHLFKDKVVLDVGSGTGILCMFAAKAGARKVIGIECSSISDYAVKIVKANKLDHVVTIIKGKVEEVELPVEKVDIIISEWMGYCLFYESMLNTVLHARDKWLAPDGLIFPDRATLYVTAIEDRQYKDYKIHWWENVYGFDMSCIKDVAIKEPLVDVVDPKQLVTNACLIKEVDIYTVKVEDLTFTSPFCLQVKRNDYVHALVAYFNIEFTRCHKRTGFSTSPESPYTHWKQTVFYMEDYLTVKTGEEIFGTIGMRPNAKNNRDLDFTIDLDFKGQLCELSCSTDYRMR

IC50: 4.1 ± 0.1 µM
SMILES: CCn1/c(=C\C=C\C2=[N+](CC)c3cccc4cccc2c34)c2cccc3cccc1c32.[I-] [compound 11, 1-ethyl-2-[3-(1-ethylbenz[c,d]indol-2(1H)-ylidene)-1-propen-1-yl]-iodide]
